Measurements published in ChEMBL document CHEMBL1907987, “Human UDP-glucuronosyltransferases: metabolism, expression, and disease” (Annu Rev Pharmacol Toxicol, 2000).

Chains of the proteins cited; added tags and fusions are not shown. Residues count along the entry.
UniProt P16662, 24-529 limits assumed: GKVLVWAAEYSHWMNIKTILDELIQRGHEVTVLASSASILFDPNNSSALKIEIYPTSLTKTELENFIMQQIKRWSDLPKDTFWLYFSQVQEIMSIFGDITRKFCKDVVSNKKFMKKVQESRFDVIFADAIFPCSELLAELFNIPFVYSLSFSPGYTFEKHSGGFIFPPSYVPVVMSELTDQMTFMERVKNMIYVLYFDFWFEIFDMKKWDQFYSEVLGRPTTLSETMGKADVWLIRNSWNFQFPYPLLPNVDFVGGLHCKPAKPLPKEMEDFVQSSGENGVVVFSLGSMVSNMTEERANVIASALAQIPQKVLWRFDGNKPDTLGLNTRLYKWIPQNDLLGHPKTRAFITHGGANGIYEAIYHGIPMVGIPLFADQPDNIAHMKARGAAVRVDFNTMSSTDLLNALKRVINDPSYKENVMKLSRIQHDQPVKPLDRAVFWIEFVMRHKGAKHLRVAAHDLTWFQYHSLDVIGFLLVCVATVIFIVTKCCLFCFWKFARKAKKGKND

Assays:
[1] = molecular target: T1, UDP-glucuronosyltransferase 2B7 (Homo sapiens, UniProt P16662); assay: Specific activity of expressed human recombinant UGT2B7Y; type: ADME; settings: recombinant enzyme
[2] = molecular target: T1, UDP-glucuronosyltransferase 2B7; assay: Specific activity of expressed human recombinant UGT2B7H; type: ADME; settings: recombinant enzyme

Compound	Activity [1] [pm/min/mg]	Activity [2]
CO[C@]12CC[C@@]3(C[C@@H]1[C@](C)(O)C(C)(C)C)[C@H]1Cc4ccc(O)c5c4[C@@]3(CCN1)[C@H]2O5	90	–
CO[C@]12CC[C@@]3(C[C@@H]1C(C)(C)O)[C@H]1Cc4ccc(O)c5c4[C@@]3(CCN1CC1CC1)[C@H]2O5	384	257 pm/min/mg and 180 pm/min/mg

Several values for one entry are separate records, joined by “and”; a condition that tells them apart may be missing. Equal values may be shown once.
